US8158340B2, “Methods for detecting conformational changes in bioentities” (Corning Incorporated, priority 2005, dated 2012)

Test system: trypsin or chymotrypsin
Assay: Conformational assay: label-independent digestion of immobilized albumins
Format: biochemical
Settings: relative to normal BSA; FIGS. 3 and 4
Procedure: In this assay, it was determined whether or not a label-independent detection assay can distinguish between different albumins by digestion with either trypsin or chymotrypsin on the Epic™ system. In this assay, digestion of BSA, acetylated BSA, methylated BSA, human serum albumin, baboon albumin and chicken albumin was examined, and the results are depicted in FIGS. 3 and 4. […] With trypsin digestion (FIG. 3), the acetylated BSA may be more denatured than the other BSA. […] In short, the digestion profiles were unique to several different protein sequences and chemical modifications. Chymotrypsin rates (FIG. 4) were not equal to trypsin digestion rates. […] These digestion signatures are informative in that they can be used to correlate function with structural integrity.

## human serum albumin: human serum albumin
  digestion profile of immobilized albumin: closely similar digestions but not identical
